Test [1] has as its target T1, cellulose-bound decamer of V.
T1 construct: also called stretch of V
Briefly: cellulose-bound decamer SPOT membrane, control. The protocol:
(§1) To study binding of recombinant human CTproSP-C and its Brichos domain to cellulose-bound decamers of the indicated residues, decamers of the indicated amino acid residues were covalently attached to a cellulose SPOT membrane (Frank R, J Immunol Meth, 267:13-26, 2002). Recombinant human S-tagged CTproSP-C (SEQ ID NO: 20) and the (S-tagged) Brichos domain of human CTproSP-C was produced in E. coli as described in Example 1.
(§2) The membrane was incubated with 1 μg/ml CTproSP-C in 50 mM Tris, 137 mM NaCl, 2.7 mM KCl, pH 8, containing 0.05% Tween (T-TBS) for 1 h at 22° C. After blocking with 2% BSA for one hour and washing with T-TBS 4×1 h, the membranes were incubated with HRP-conjugated S-protein (Novagen, Madison, Wis.) diluted 1:5000. The membranes were then washed again as above, and bound S-tagged CTproSP-C was visualized by enhanced chemiluminescence, see FIG. 3A. CTproSP-C binds to stretches of V, I, L, F, M, or Y, but not to A, W, G, P, or T counterparts.

Test [2] has the same target. Description: cellulose-bound decamer SPOT membrane, 1 µg/ml protein, S-protein-HRP, ECL. The protocol: as §1, §2
The target is the same in test [3]. Description: cellulose-bound decamer SPOT membrane. How it is done: as §1, §2

B1: Recombinant human CTproSP-C^L188Q, S-tagged (other)
chain: HMSQKHTEMVLEMSIGAPEAQQRLALSEHLVTTATFSIGSTGLVVYDYQQLLIAYKPAPGTCCYIMKIAPESIPSLEALNRKVHNFQMECSLQAKPAVPTSKLGQAEGRDAGSAPSGGDPAFLGMAVNTQCGEVPLYYI
notes: also called mutant human CTproSP-C^L188Q; not shown: S-tag left after thrombin cleavage
B1: in test [1], the binding result is “no binding”.

B2: S-tagged recombinant human CTproSP-C (proSP-C^59-197) (other)
chain: GSGMKETAAAKFERQHMDSPDLGTDDDDKAMAHMSQKHTEMVLEMSIGAPEAQQRLALSEHLVTTATFSIGSTGLVVYDYQQLLIAYKPAPGTCCYIMKIAPESIPSLEALTRKVHNFQMECSLQAKPAVPTSKLGQAEGRDAGSAPSGGDPAFLGMAVSTLCGEVPLYYI
notes: SEC and ESI-MS show mainly trimers and oligomers of trimers; also called CTC; C-terminal domain of lung surfactant protein C precursor
As to B2, the binding result in test [2] was “binds”.

B3: Recombinant human CTproSP-CBrichos (human proSP-C^94-197), S-tagged (other)
chain: FSIGSTGLVVYDYQQLLIAYKPAPGTCCYIMKIAPESIPSLEALNRKVHNFQMECSLQAKPAVPTSKLGQAEGRDAGSAPSGGDPAFLGMAVNTLCGEVPLYYI
notes: also called Brichos domain of human CTproSP-C; Brichos region; not shown: S-tag and vector residues from pET-32c left after thrombin cleavage
As for B3, the binding result in test [3] is recorded as “binds”.

Source of the values: patent US20140243272A1 (ALPHABETA, published 2014).
